From patent publication US9458113B2 (Boehringer Ingelheim International GmbH, priority 2014, dated 2016) come the findings set out here.

Sequences of proteins named here, by UniProt entry; tags and fusion partners are left off. Residues count along the entry.
UniProt P08246, 30-247 limits assumed: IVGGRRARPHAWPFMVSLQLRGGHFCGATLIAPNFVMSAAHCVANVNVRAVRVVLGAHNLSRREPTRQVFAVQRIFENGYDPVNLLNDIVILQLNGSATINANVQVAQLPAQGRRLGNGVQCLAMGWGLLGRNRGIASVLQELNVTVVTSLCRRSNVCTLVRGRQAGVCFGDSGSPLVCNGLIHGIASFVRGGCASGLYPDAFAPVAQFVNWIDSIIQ

Each structure is given as a SMILES string.

This experiment addresses Human neutrophil elastase (Homo sapiens (Human), UniProt P08246). Briefly: Human Neutrophil Elastase Assay. The conditions noted are these: substrate MeOSuc-Ala-Ala-Pro-Val-AMC 250 μM, pH 7.5.

As a reminder, the IC50 is the concentration that gives 50% inhibition. Low readings indicate inhibition by little substance, high ones a need for much substance. As to `CN1C(=O)N(c2cccc(C(F)(F)F)c2)C2=C(C(=O)CC2)C1c1ccc(C#N)cc1C(=O)NC1C2CC1C2` (centres unmarked), the IC50 amounted to 6.6 nM.

Consider `CNC(=O)c1cc(C#N)ccc1C1C2=C(CCC2=O)N(c2cccc(C(F)(F)F)c2)C(=O)N1C` (centres unmarked), for which the IC50 worked out at 6.9 nM.
